Measured values published in patent US11077120B2, “Prostaglandin receptor EP2 antagonists, derivatives, compositions, and uses related thereto” (Emory University, priority 2014, dated 2021).
Converted amounts (≈) assume the structure as drawn. Like-named read-outs stand apart in the source and are kept apart here.

Protein sequences, listed by entry. Tags and fused reporters are not part of them. Lines headed by an entry give the natural chain unless they say otherwise; changes in a name come on top.
UniProt P43116: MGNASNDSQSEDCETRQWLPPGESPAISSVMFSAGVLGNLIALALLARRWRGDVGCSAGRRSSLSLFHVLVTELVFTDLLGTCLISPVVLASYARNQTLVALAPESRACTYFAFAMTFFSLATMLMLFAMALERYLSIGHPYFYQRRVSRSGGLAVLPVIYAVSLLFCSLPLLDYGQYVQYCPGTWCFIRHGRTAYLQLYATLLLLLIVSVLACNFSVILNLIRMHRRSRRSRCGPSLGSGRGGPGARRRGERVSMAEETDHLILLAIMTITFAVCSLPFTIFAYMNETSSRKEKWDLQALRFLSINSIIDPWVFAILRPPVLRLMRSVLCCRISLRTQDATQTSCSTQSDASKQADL
UniProt P43119: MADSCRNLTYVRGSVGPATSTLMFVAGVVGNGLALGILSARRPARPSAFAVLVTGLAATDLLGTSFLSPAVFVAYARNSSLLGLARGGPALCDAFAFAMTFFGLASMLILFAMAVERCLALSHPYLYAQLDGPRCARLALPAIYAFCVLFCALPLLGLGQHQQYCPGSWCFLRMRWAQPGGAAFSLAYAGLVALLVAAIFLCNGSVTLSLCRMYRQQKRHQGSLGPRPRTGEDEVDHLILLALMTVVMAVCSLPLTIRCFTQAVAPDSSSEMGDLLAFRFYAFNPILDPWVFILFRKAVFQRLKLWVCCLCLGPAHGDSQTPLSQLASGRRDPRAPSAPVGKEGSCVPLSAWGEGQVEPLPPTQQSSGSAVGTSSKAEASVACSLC

Legend:
human DP1 receptors = target: T1, human DP1 receptors (Homo sapiens, UniProt Q13258); experiment: cell-based cAMP TR-FRET assay, DP1 (agonist BW245C)
T1 construct: expressed in transfected cells
T1 sequence (Q13258 1-359): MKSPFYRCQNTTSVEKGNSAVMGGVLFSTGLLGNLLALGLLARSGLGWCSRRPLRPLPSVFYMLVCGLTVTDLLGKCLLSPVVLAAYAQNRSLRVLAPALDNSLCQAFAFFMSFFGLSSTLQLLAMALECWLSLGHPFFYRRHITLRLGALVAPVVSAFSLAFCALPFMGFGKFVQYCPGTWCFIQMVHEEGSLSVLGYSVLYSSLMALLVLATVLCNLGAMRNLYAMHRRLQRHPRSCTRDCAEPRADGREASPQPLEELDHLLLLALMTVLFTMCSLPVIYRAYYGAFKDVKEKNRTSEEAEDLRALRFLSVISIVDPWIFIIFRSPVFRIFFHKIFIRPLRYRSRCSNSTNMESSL
Protocol: The synthesis was carried out starting from commercially available 2-methyl indole or 2-trifluoromethyl indoles (11a-c), which on treatment with bromoacetonitrile provided intermediates (12a-c), which then were subjected to lithium aluminum hydride to reduce cyanide to amines. […] Synthesized derivatives were tested by using a cAMP-derived TR-FRET assay, at single concentration (1 μM) to observe a rightward shift of PGE2 (an EP2 agonist) concentration response curve in a C6G cell line that overexpresses human EP2 receptors.
Intracellular cAMP was measured with a cell-based homogeneous time-resolved fluorescence resonance energy transfer (TR-FRET) method (Cisbio Bioassays). […] Endogenous cAMP produced by cells competes with labeled cAMP for binding to the cAMP antibody and thus reduces the FRET signal. Cells stably expressing human DP1, EP2, EP4, or IP receptors were seeded into 384-well plates in 30 μl complete medium (4,000 cells/well) and grown overnight. The medium was carefully withdrawn and 10 μl Hanks' Buffered Salt Solution (HBSS) (Hyclone) containing 20 μM rolipram was added into the wells to block phosphodiesterases. The cells were incubated at room temperature for 0.5-1 h and then treated with vehicle or test compound for 10 min before addition of increasing concentrations of appropriate agonist: BW245C for DP1, PGE2 for EP2 and EP4, or iloprost for IP. The cells were incubated at room temperature for 40 min, then lysed in 10 μl lysis buffer containing the FRET acceptor cAMP-d2 and 1 min later another 10 μl lysis buffer with anti-cAMP-Cryptate was added. […] The FRET signal was expressed as: F665/F590×10^4.

human EP2 receptors = target: T2, human EP2 receptors (Homo sapiens, UniProt P43116); experiment: cell-based cAMP TR-FRET assay, rightward shift of PGE2 concentration response curve (Schild KB), EP2
T2 construct: expressed in transfected cells

[1] = aqueous solubility by nephelometry; details: parents 15a / 15d as stated
human IP receptors = target: T3, human IP receptors (Homo sapiens, UniProt P43119); experiment: cell-based cAMP TR-FRET assay, IP (agonist iloprost)
T3 construct: expressed in transfected cells
Protocol: These derivatives were selected for testing against EP4 and IP receptors. Cell lines were created that overexpress EP4 receptors, or IP receptors on C6-glioma cells. A cAMP-derived TR-FRET assay was developed using agonists PGE2 (for EP4) and iloprost (for IP), similar to EP2 assay.
Intracellular cAMP was measured with a cell-based homogeneous time-resolved fluorescence resonance energy transfer (TR-FRET) method (Cisbio Bioassays). […] Endogenous cAMP produced by cells competes with labeled cAMP for binding to the cAMP antibody and thus reduces the FRET signal. Cells stably expressing human DP1, EP2, EP4, or IP receptors were seeded into 384-well plates in 30 μl complete medium (4,000 cells/well) and grown overnight. The medium was carefully withdrawn and 10 μl Hanks' Buffered Salt Solution (HBSS) (Hyclone) containing 20 μM rolipram was added into the wells to block phosphodiesterases. The cells were incubated at room temperature for 0.5-1 h and then treated with vehicle or test compound for 10 min before addition of increasing concentrations of appropriate agonist: BW245C for DP1, PGE2 for EP2 and EP4, or iloprost for IP. The cells were incubated at room temperature for 40 min, then lysed in 10 μl lysis buffer containing the FRET acceptor cAMP-d2 and 1 min later another 10 μl lysis buffer with anti-cAMP-Cryptate was added. After 60-90 min incubation at room temperature, the FRET signal was measured by an Envision 2103 Multilabel Plate Reader (PerkinElmer Life Sciences) with a laser excitation at 337 nm and dual emissions at 665 nm and 590 nm for d2 and Cryptate (50 s delay), respectively. The FRET signal was expressed as: F665/F590×10^4.

[2] = pH 7.4
C6-glioma cells = details: rat
[3] = 1 h
[4] = mouse, in vivo

Structure (SMILES) | Kb (human DP1 receptors) [nM] | SI (DP1/EP2) (human DP1 receptors) | Kb (human EP2 receptors; read-out: EP2 KB) [nM] | Kb (human EP2 receptors; read-out: KB EP2) [nM] | Kb (human IP receptors) [nM] | further results
O=C(/C=C/c1ccc(OCCO)c(OCCO)c1)NCCn1c(C(F)(F)F)cc2ccccc21 [Compound 16b] | 2820 | 10 | 260 |  |  | fold higher aqueous solubility in comparison to parent compound [1]: 2.5 fold
Cc1cc2ccccc2n1CCNC(=O)/C=C/c1ccc(OCCN(C)C)cc1 [Compound 16m] | 265 | 2 | 137 |  |  | 
Cc1cc2ccccc2n1CCNC(=O)/C=C/c1ccc(OCCCN(C)C)cc1 [Compound 16l] | 283 | 3.8 | 74.6 |  |  | 
CCN(CC)c1ccc(C(=O)NCCn2ccc3ccccc32)cc1 [Compound 6l] |  |  |  |  |  | Kb (human EP2 receptors; Table 1, Schild KB from single antagonist concentration 1 μM, average of 2-3 measurements in duplicate, read-out: EP2 KB): 62.9 nM
Cc1[nH]c2ccccc2c1CCNC(=O)/C=C/c1ccc(OCCO)c(OCCO)c1 [Compound 16c, (E)-3-(3,4-bis(2-hydroxyethoxy)phenyl)-N-(2-(2-methyl-1H-indol-3-yl)ethyl)acrylamide] | 7450 |  |  | 41.1 | 240000 | Kb (human EP2 receptors; read-out: Schild KB from Schild regression): 47.1 nM
COc1cc(/C=C/C(=O)NCCn2c(C)cc3ccccc32)cc(OC)c1OC [Compound 15a] | 34.5 |  | 2.4 | 2.4 | 62000 | 
COc1cc(/C=C/C(=O)NCCn2c(C(F)(F)F)cc3ccccc32)cc(OC)c1OC [Compound 15d, (E)-N-(2-(2-(Trifluoromethyl)-1H-indol-1-yl)ethyl)-3-(3,4,5-trimethoxyphenyl)acrylamide] | 166 |  | 17.8 | 17.8 | 8450 | Solubility [2]: 27 µM (≈ 12.1 µg/mL); CC50 (C6-glioma cells): 81000 nM; % remaining at 60 minutes in mouse liver microsomes [3]: 2%; C-max ([4]; ip, 5 mg/kg): 115 ± 303 ng/mL; C-max ([4]; po, 10 mg/kg): 248 ± 61 ng/mL; T1/2 (plasma) ([4]; po, 10 mg/kg): 1.8 h
Cc1cc2ccccc2n1CCNC(=O)/C=C/c1ccc(OCCO)c(OCCO)c1 [Compound 16a, (E)-3-(3,4-bis(2-hydroxyethoxy)phenyl)-N-(2-(2-methyl-1H-indol-1-yl)ethyl)acrylamide] |  |  |  |  | 1570 | 
COc1cc(/C=C/C(=O)NCCn2c(C)cc3ccccc32)cc(OC)c1OCCN(C)C [Compound 16k] | 752 | 8.9 | 84.5 |  |  | 
Cc1cc2ccccc2n1CCNC(=O)/C=C/c1ccc(OCCCO)cc1 [Compound 16e] | 67.1 |  |  |  | 210000 | 
